Compound activity (PubChem)
SR-BI uptake up = enhances SR-BI lipid uptake from DiI-HDL | CHO ldlA[mSR-BI] cells, DiI-HDL uptake fluorescence, 3 h; 100 = double the neutral-control signal | activation, % at 12.5 µM | hit rate 0.096% among 320,000 | AID 504775;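 active = mean replicate activation of at least 60% and every replicate at or above 60%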;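 also: 0% = median plate neutral-control signal and 100% = twice that signal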
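Assay system: LDL receptor-deficient CHO ldlA cells overexpressing murine SR-BI / Medium: BSA-supplemented, HEPES-buffered Ham's F12, pH 7.4 / Probe or stimulus: DiI-labelled HDL at 10 µg/mL final / Timing: compound with DiI-HDL co-incubation, 3 h at 37 °C / Technique: bottom-read cell fluorescence after medium removal, ex 550/em 595 nm / Measure: HDL uptake via cellular fluorescence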
GSIS activator = GLuc luminescence reporter in INS-1E cells, primary screen for activators of glucose-dependent secretion of insulin | activation, % at 16.6 µM | AID 743287 | hit rate 0.61% among 370,000 | INS-1E GLuc reporter insulin secretion, 2-3 h;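 active = lowest replicate activation of at least 40%, so every replicate reaches that level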;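 also: 0% = median of neutral control wells and 100% = median of IBMX positive control wells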
UUG fidelity = yeast start codon fidelity modulation; activity score, % at 18.7 µM; actives 0.13% (n = 350,000); S. cerevisiae UUG-firefly luciferase reporter, luminescence/redox ratio; AID 602363;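 active means replicate mean at a twofold rise or more, about +100% in these data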;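 further: firefly luciferase made from a UUG start codon reports start codon fidelity; reporter light over untreated wells divided by growth signal over untreated wells; some hits fall short of that in this replicate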
SR-BI DiI inh = blocks mouse SR-BI lipid uptake from DiI-HDL. hit rate 0.96% among 320,000. inhibition, % at 12.5 µM. AID 488896. ldlA[mSR-BI] CHO cells, DiI-HDL uptake fluorescence, 3 h;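 active = mean replicate inhibition of at least 70% and a set share of replicates each scoring 70 or more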;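 also: 0% = median of neutral control wells and 100% = median of positive control wells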
The depositor's hits bear a star; . = no result given. Only some compounds are listed: those with a hit (about 1.3% of all), similar ones and a draw of the others.

SMILES | SR-BI uptake up | GSIS activator | UUG fidelity | SR-BI DiI inh
CCOc1cc(C)ccc1OCc1nnc(SCC(=O)c2cccc([N+](=O)[O-])c2)n1CC | -88 | . | . | 88*
Cc1cc(NC(=O)c2ccccc2)no1 | 31 | -6 | 7 | -31
CCOc1ccccc1NC(=O)c1ccc2[nH]c(C)c(C)c2c1 | . | -5 | -11 | .
COc1ccc(-c2nc3ccc(C(=O)NCC(OC)OC)cc3nc2-c2ccc(OC)cc2)cc1 | -51 | 19 | . | 51
Cc1cc(NC(=O)c2ccc3nc(-c4ccccc4)c(-c4ccccc4)nc3c2)no1 | -80 | . | -10 | 80*
COc1ccc(NC(=O)c2ccc3nc(-c4ccccc4)c(-c4ccccc4)nc3c2)c(OC)c1 | -76 | . | . | 76*
COC(CNC(=O)c1ccc2nc(-c3ccccc3)c(-c3ccccc3)nc2c1)OC | -80 | 5 | . | 80*
COc1ccc(NC(=O)c2ccc3[nH]c(C)c(C)c3c2)c(OC)c1 | -109 | 8 | -6 | 109*
CO[C@H]1CN(C)C(=O)c2cc(NS(=O)(=O)c3cccc(F)c3)ccc2OC[C@@H](C)NC[C@H]1C | . | 21 | . | .
C[C@H](CO)N1C[C@H](C)[C@H](CN(C)C(=O)Nc2ccccc2)OCCCC[C@H](C)Oc2ccc(NC(=O)Nc3ccc(C(F)(F)F)cc3)cc2C1=O | . | 3 | . | .
C=CCn1c(SCC(=O)NCc2ccc3c(c2)OCO3)nc2scc(-c3ccc(F)cc3)c2c1=O | 37 | 112* | -16 | -37
C=CCn1c(SC(C)C(=O)NCc2ccc3c(c2)OCO3)nc2scc(-c3ccccc3)c2c1=O (stereo unspecified) | -10 | -34 | -17 | 10
Cc1[nH]c2ccccc2c1N=Nc1ccc(F)cc1 | -83 | -14 | . | 83*
O=C1Nc2ccccc2N(C(=O)c2ccc3ccccc3c2)C1c1nc2ccccc2[nH]1 (stereo unspecified) | . | 121* | . | .
Cc1c(Cc2ccccc2)sc(NC(=O)Cc2ccccc2)c1C(N)=O | . | 10 | -12 | .
Cc1c(Cc2ccccc2)sc(NC(=O)C(C)(C)C)c1C(N)=O | . | 46* | . | .
CCC(=O)Nc1sc(Cc2ccc3c(c2)OCO3)c(C)c1C(N)=O | . | 67* | . | .
CC(=O)N[C@H]1CC[C@H](CC(=O)NCc2ccc(Cl)cc2)O[C@@H]1CO | . | 3 | -9 | .
COc1ccc(-c2cc(=O)c3cc(O)ccc3o2)cc1 | 5 | -2 | -30 | -5
COc1ccc2oc(-c3ccncc3)cc(=O)c2c1 | -1 | 53* | -13 | 1
COC(=O)c1c(C)[nH]c(C(=O)/C=C/c2ccccc2)c1C | -19 | 56* | . | 19
COc1ccc(CCNC(=O)c2cccc(NC(=O)CC3SC(N4CCCCC4)=NC3=O)c2)cc1OC (stereo unspecified) | -78 | 0 | 13 | 78*
COc1ccc(CCNC(=O)c2ccc(NC(=O)CC3SC(N4CCCC4)=NC3=O)cc2)cc1OC (stereo unspecified) | -52 | -1 | -6 | 52
Cc1c(CC(=O)O)c(=O)oc2c(C)c(OCc3ccccc3Br)ccc12 | 19 | 41* | -14 | -19
CCCNC(=O)Nc1ccc2c(c1)C(=O)N(C)C[C@H](OC)[C@@H](C)CN(Cc1ccccc1)[C@H](C)CO2 | . | -28 | . | .
(more compounds)
SMILES | SR-BI uptake up | GSIS activator | UUG fidelity | SR-BI DiI inh
CCC(=O)N1CC(=O)N2[C@H](CO)[C@H](c3ccc(C#CCC(C)C)cc3)[C@H]2C1 | . | 4 | . | .
Cc1ccc(NC(=O)c2ccc(Cl)c(S(=O)(=O)NCc3ccco3)c2)c(O)c1 | -90 | . | -8 | 90*
NS(=O)(=O)c1ccc(NC(=O)c2ccc(Cl)c(S(=O)(=O)NCc3ccco3)c2)cc1 | -37 | -4 | -11 | 37
Cc1ccc(F)cc1-c1nc(NC(C)C)nc2cc(-c3ccccc3)sc12 | . | 66* | -23 | .
CCc1cc(Br)ccc1NC(=S)NCCc1ccccc1 | -76 | -60 | -25 | 76*
COc1ccc(NC(=S)NCCc2ccccc2)c(C)c1 | -20 | 15 | -34 | 20
CCOC(=O)c1sc2nc(C3CC3)cc(-c3ccc(F)cc3)c2c1N | -77 | . | -5 | 77*
N#Cc1sc2nc(-c3cccs3)cc(-c3ccc(F)cc3)c2c1N | -82 | 36 | -13 | 82*
N#Cc1sc2nc(C3CC3)cc(-c3ccccc3)c2c1N | -21 | 49* | -12 | 21
CCOC(=O)c1sc2nc(C3CC3)cc(-c3ccc(OC)cc3)c2c1N | 0 | 18 | -29 | 0
CN(Cc1ccccc1C#N)S(=O)(=O)c1cccs1 | . | -1 | -13 | .
N#Cc1nccnc1S(=O)(=O)c1cccs1 | . | 134* | . | .
Cc1noc(C)c1NC(=O)N(C)C[C@H]1Oc2c(NC(=O)Nc3ccccc3)cccc2C(=O)N([C@H](C)CO)C[C@H]1C | . | 4 | . | .
COC(=O)c1cc2ccccc2c(-c2c(OC)c(C(=O)OC)cc3ccccc23)c1OC | -7 | . | 25 | 7
COC(=O)c1cc2ccccc2c([N+](=O)[O-])c1O | 36 | 55* | -13 | -36
CN1[C@@H]2Cn3c(ccc(/C=C/c4ccccc4)c3=O)[C@H]1[C@@H](C(=O)NC1CCCC1)[C@@H]2CO | . | -1 | . | .
CC[C@H](C)[C@@H](C(=O)NCCCCCCCCCCC(=O)N1CCN(C(=O)OC(C)(C)C)CC1)n1cc(CCCCCNC(=O)OC(C)(C)C)nn1 | -71 | 11 | -7 | 71*
C#CCOCCOCCOCCNc1nc(N2CCN(C(=O)CCCCCCCCCCNC(=O)Cn3cc(CCCCCN)nn3)CC2)nc(N2CCN(C(=O)CCCCCCCCCCNC(=O)[C@H]([C@@H](C)CC)n3cc(CCCCN=C(N)N)nn3)CC2)n1 | -84 | . | 27 | 84*
C#CCOCCOCCOCCNc1nc(N2CCN(C(=O)CCCCCCCCCCNC(=O)[C@H]([C@@H](C)CC)n3cc(CCCCCN)nn3)CC2)nc(N2CCN(C(=O)CCCCCCCCCCNC(=O)[C@H]([C@@H](C)CC)n3cc(CCCCN=C(N)N)nn3)CC2)n1 | -40 | . | -1 | 40
CC(C)(C)OC(=O)NCCCCCc1cn([C@@H](CO)C(=O)NCCCCCCCCCCC(=O)N2CCN(C(=O)OC(C)(C)C)CC2)nn1 | -48 | . | 11 | 48
C[C@@H]1CCCCO[C@@H](CN(C)Cc2ccccc2)[C@@H](C)CN([C@H](C)CO)C(=O)c2cc(NC(=O)c3ccncc3)ccc2O1 | . | 7 | . | .

Given with the structure last: entries from further up
SR-BI uptake up	GSIS activator	UUG fidelity	SR-BI DiI inh	Structure
.	7	.	.	C[C@@H]1CCCCO[C@@H](CN(C)Cc2ccccc2)[C@@H](C)CN([C@H](C)CO)C(=O)c2cc(NC(=O)c3ccncc3)ccc2O1
.	-1	.	.	CN1[C@@H]2Cn3c(ccc(/C=C/c4ccccc4)c3=O)[C@H]1[C@@H](C(=O)NC1CCCC1)[C@@H]2CO

Whole records as entered above. Order of values: SR-BI uptake up	GSIS activator	UUG fidelity	SR-BI DiI inh
Listed for `NS(=O)(=O)c1ccc(NC(=O)c2ccc(Cl)c(S(=O)(=O)NCc3ccco3)c2)cc1` → -37	-4	-11	37
Listed for `N#Cc1nccnc1S(=O)(=O)c1cccs1` → .	134*	.	.
Listed for `Cc1c(CC(=O)O)c(=O)oc2c(C)c(OCc3ccccc3Br)ccc12` → 19	41*	-14	-19
